Yeast mating assay B: variants of the scFv Ab-14

From the AlphaSeq antibody data of Li et al. 2023 (doi:10.1038/s41467-023-39022-2), copy in the FLAb collection.

Target peptide (SARS-CoV-2 spike, HR2 region): PDVDLGDISGINAS

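Designed CDR sequences, proposed from the first random library and measured here. Their group label is 14H_En_HC (En: ensemble of fine-tuned language models; HC: hill climbing; a sequence that several methods proposed may carry one label only). The assay is AlphaSeq: two haploid yeast populations carry antibody and antigen on their surface. Mating (16 h, 30 °C) was followed by selection of diploids and sequencing of their barcodes. Each replicate has its own calibration line, from reference interactions of the BCL2 family. Each pool was mated in six replicate cultures.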

Each scFv is VH, three GGGGS repeats, VL, as in the parent Ab-14, and differs from it in the CDRs of the heavy chain only.
VH: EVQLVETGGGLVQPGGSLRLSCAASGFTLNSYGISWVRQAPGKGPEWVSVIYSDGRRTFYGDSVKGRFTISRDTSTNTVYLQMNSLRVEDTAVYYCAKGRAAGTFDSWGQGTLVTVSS
VL: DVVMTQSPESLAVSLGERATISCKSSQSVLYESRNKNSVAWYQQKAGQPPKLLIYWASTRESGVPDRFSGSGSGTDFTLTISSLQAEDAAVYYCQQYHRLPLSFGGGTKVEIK

The parent's heavy chain CDRs are GFTLNSYGIS, VIYSDGRRTFYGDSVK, GRAAGTFDS; each variant's own CDRs replace them letter for letter. Scale: log10 of Kd in nM, estimated from mating counts; low values are strong binders. A pair that was not seen in that replicate is written "ND"; this usually means weak binding, but a binder can also be missed. The range of this assay differs from that of the first round, and the authors advise against merging the two. In the paper, a design with two or fewer of six values counts as a poor binder. The parent sequence was in this pool as ten entries: three were never detected, three once, and four in most replicates, with averages from 0.34 to 2.37. Empty control strains, which show no peptide, gave a signal in 1% of pairings with all heavy chain designs; the median was 2.08 and 95% of these signals were weaker than 0.84. No background was subtracted. The control count says in how many pairings with the empty strains this scFv gave a signal, with their mean in brackets.

CDR-H1 | CDR-H2 | CDR-H3 | log10 Kd (nM) by replicate | empty controls
GFDLEDYGIS | VIYADGKRTAYADSVK | GEAAGTFDL | -0.72 / -0.34 / -0.56 / -0.27 / -0.49 / -0.55 | 1 of 18 (1.18)
GFDLNEYGIS | VIYADGRRTFYADSVK | GQIAGTFIV | 0.20 / 0.55 / -0.06 / 0.10 / -0.01 / 0.01 | 0 of 18
GFNLNEYGIS | VIYADGRRTFYSDSVK | GETAGTFDS | -0.52 / -0.10 / -0.21 / -0.57 / -0.20 / -0.10 | 0 of 18
GFDLNEYGIS | VIYADGIRTFYADSVK | GNAAGTFDA | 0.14 / -0.41 / -0.41 / -0.43 / -0.18 / -0.14 | 1 of 18 (1.00)
GFDLNEYGIS | VIYADGIRTFYADSVK | GNNAGTFDS | -0.09 / -0.47 / 0.09 / -0.01 / -0.41 / -0.58 | 0 of 18
GFDLDEYGIS | VIYADGRRTFYTDSVK | GENAGTFDV | -0.53 / -0.46 / -0.81 / -0.80 / -0.54 / -0.19 | 0 of 18
GFDLNEYGIS | VIYADGVRTFYADSVK | GNQAGTFDQ | -0.36 / -0.34 / -0.67 / -0.84 / -0.64 / -0.39 | 0 of 18
GFDINEYGIS | VIYADGQRTFYADSVK | GQTAGTFDV | -0.36 / -0.34 / -0.22 / -0.71 / -0.37 / -0.54 | 1 of 18 (4.41)
GFDINEYGIS | VIYADGRRTAYADSVK | GEAAGTFDT | -0.13 / 0.10 / 0.36 / 0.85 / 1.55 / 0.11 | 0 of 18
GFDLDEYGIS | VIYADGRRTFYADSVK | GTQAGTFDA | -0.77 / -0.75 / -1.10 / -1.13 / -0.83 / -0.69 | 0 of 18
GFDLNEYGIS | VIYADGRRTFYKDSVK | GSNAGTFDM | -0.36 / -0.31 / -0.18 / -0.94 / -0.21 / -0.39 | 1 of 18 (1.68)
GFDLNEYGIS | VIYADGRRTFYADSVK | GNAAGTFDQ | -0.17 / -0.30 / -0.29 / -0.29 / -0.45 / -0.45 | 1 of 18 (1.81)
GFDLNEYGIS | VIYADGRRTAYVDSVK | GVNAGTFDS | -0.47 / -0.47 / -0.78 / -0.83 / -0.67 / -0.56 | 0 of 18
GFDLNEYGIS | VIYADGRRTFYADSVK | GQEAGTFDV | -0.40 / -0.48 / -0.37 / -0.34 / -0.52 / -0.47 | 0 of 18
GFDLNEYGIS | VIYADGRRTFYADSVK | GNAAGTFIL | 0.72 / 0.49 / 0.63 / 0.37 / 0.08 / 0.69 | 0 of 18
GFDLNEYGIS | VIYADGRRTAYSDSVK | GEIAGTFDF | -0.44 / -0.63 / -0.44 / -0.72 / -0.61 / -0.41 | 1 of 18 (3.92)
GFDIDEYGIS | VIYADGRRTAYADSVK | GTNAGTFDV | -0.13 / -0.27 / -0.46 / -0.58 / -0.55 / -0.34 | 0 of 18
GFDLNEYGIS | VIYADGRRTAYIDSVK | GEAAGTFDL | -0.62 / -0.57 / -0.57 / -0.78 / -0.50 / -0.68 | 0 of 18
GFDLNEYGIS | VIYADGQRTAYADSVK | GKVAGTFDT | -0.14 / -0.62 / -0.83 / -0.83 / 0.41 / -0.55 | 1 of 18 (-0.34)
GFNLNEYGIS | VIYADGRRTAYADSVK | GQVAGTFDV | -0.57 / -0.25 / -0.66 / -0.45 / -0.41 / -0.45 | 0 of 18
GFDLNEYGIS | VIYADGVRTQYIDSVK | GNEAGTFDV | ND / 0.76 / 1.28 / 0.25 / 0.87 / 1.14 | 0 of 18
GFDLEEYGIS | VIYADGRRTFYSDSVK | GEAAGTFDA | -0.28 / -0.31 / -0.67 / -0.50 / -0.36 / -0.36 | 0 of 18
GFDINEYGIS | VIYADGRRTAYADSVK | GNAAGTFDS | 0.71 / 0.83 / -0.17 / -0.35 / -0.07 / -0.17 | 0 of 18
GFDLNEYGIS | VIYADGRRTAYTDSVK | GTAAGTFDL | -0.28 / -0.63 / -0.61 / -0.93 / -0.66 / -0.22 | 0 of 18
GFDLDEYGIS | VIYADGRRTFYQDSVK | GQTAGTFDQ | -0.29 / -0.37 / -0.55 / -0.39 / -1.07 / -0.45 | 0 of 18
GFDLNEYGIS | VIYADGRRTFYADSVK | GKNAGTFNV | -0.80 / -1.00 / -0.78 / -0.73 / -0.94 / -0.64 | 0 of 18
GFDLNEYGIS | VIYADGMRTFYIDSVK | GNAAGTFDV | -0.39 / -0.38 / -0.74 / -0.76 / -0.87 / -0.64 | 0 of 18
GFNLDEYGIS | VIYADGRRTFYADSVK | GQVAGTFDA | -0.37 / -0.44 / -0.44 / -0.62 / -0.68 / -0.35 | 0 of 18
GFDLNEYGIS | VIYADGRRTVYADSVK | GEAAGTFDS | -0.13 / -0.37 / 0.20 / 0.06 / -0.45 / -0.14 | 0 of 18
GFNLNEYGIS | VIYADGRRTFYADSVK | GQNAGTFIV | ND / ND / ND / ND / ND / ND | 0 of 18
GFNLDEYGIS | VIYADGRRTFYSDSVK | GEVAGTFDV | -0.71 / -1.08 / -1.00 / -1.02 / -0.99 / -0.87 | 1 of 18 (2.50)
GFDLNEYGIS | VIYADGRRTFYTDSVK | GEVAGTFDL | -0.53 / -0.34 / -0.69 / -0.82 / -0.70 / -0.41 | 0 of 18
GFDLNEYGIS | VIYADGVRSFYADSVK | GQLAGTFDS | -0.43 / -0.66 / -0.55 / -0.77 / -0.53 / -0.56 | 1 of 18 (3.81)
GFDLNEYGIS | VIYADGRRTFYADSVK | GEFAGTFDI | -0.53 / -0.41 / -0.38 / -0.47 / -0.39 / 0.19 | 1 of 18 (1.70)
GFDLNEYGIS | VIYADGRRTAYLDSVK | GEIAGTFDS | 0.69 / -0.55 / -0.29 / -0.67 / -1.17 / -0.81 | 0 of 18
GFDLNEYGIS | VIYADGRRTAYVDSVK | GHNAGTFDV | 0.18 / -0.11 / -0.01 / -0.17 / 0.16 / 0.11 | 0 of 18
GFDLNEYGIS | VIYADGMRTFYADSVK | GEHAGTFDI | -0.97 / -0.99 / -1.38 / -1.41 / -0.63 / -0.60 | 0 of 18
GFDLNEYGIS | VIYADGRRTSYVDSVK | GQVAGTFDV | -0.94 / -0.98 / -0.35 / -0.83 / -1.00 / -0.58 | 1 of 18 (1.22)
GFDLNEYGIS | VIYADGRRTNYTDSVK | GTNAGTFDM | 0.86 / 0.95 / 0.60 / 1.23 / 0.88 / 1.21 | 0 of 18
GFDLNEYGIS | VIYADGQRTFYTDSVK | GNVAGTFDV | ND / 0.68 / ND / ND / ND / ND | 0 of 18
GFDLNEYGIS | VIYADGRRTFYADSVK | GENAGTFNS | -0.23 / -0.27 / -0.53 / -0.49 / -0.21 / -0.39 | 0 of 18

The closing 3 entries, repeated:

{"CDR-H1": "GFDLNEYGIS", "CDR-H2": "VIYADGRRTNYTDSVK", "CDR-H3": "GTNAGTFDM", "log10 Kd (nM) by replicate": "0.86 / 0.95 / 0.60 / 1.23 / 0.88 / 1.21", "empty controls": "0 of 18"}
{"CDR-H1": "GFDLNEYGIS", "CDR-H2": "VIYADGQRTFYTDSVK", "CDR-H3": "GNVAGTFDV", "log10 Kd (nM) by replicate": "ND / 0.68 / ND / ND / ND / ND", "empty controls": "0 of 18"}
{"CDR-H1": "GFDLNEYGIS", "CDR-H2": "VIYADGRRTFYADSVK", "CDR-H3": "GENAGTFNS", "log10 Kd (nM) by replicate": "-0.23 / -0.27 / -0.53 / -0.49 / -0.21 / -0.39", "empty controls": "0 of 18"}